Measured values from patent US11173119B2, “Nanolipogel vehicles for controlled delivery of different pharmaceutical agents” (YALE UNIVERSITY, priority 2012, dated 2021).

How the values were obtained:
Splenocytes = experiment: IL-2 bioactivity study (splenocyte stimulation, IFN-γ ELISA); format: cell-based, B6 mouse; details: IFN-γ production correlated with IL-2 concentration
Description: Cumulative release of nLG-IL-2 was performed at 1, 3, 5, and 7 days in complete media [RPMI media (Gibco) with 10% fetal bovine serum (Atlanta Biological) and penicillin/streptomycin (Sigma) supplemented with L-glutamine (Sigma), non-essential amino acids (Gibco), Hepes buffer (Sigma), gentamicin (Sigma), and β-mercaptoethanol (Sigma)]. Splenocytes were isolated from a B6 mouse and 1×10^6 cells were added in 500 μL T cell media to each well of a 24 well plate previously coated with 10 μg/mL anti-CD3 (coated overnight in 1×PBS at 4° C.) and 5 μg/mL soluble anti-CD28 (BD Biosciences). The media from release studies was filtered through a 0.22-μm syringe filter (Whatman) and 500 μL was added to the wells. Additionally all wells contained 5 μg/mL, soluble anti-CD28 (BD Biosciences). Soluble IL-2 was added at varying concentrations to control wells to as a standard. Cells were incubated at 37° C. and cellular stimulation was assessed after 72 hours using an IFN-γ ELISA (BD Biosciences).

metastatic melanoma = details: high dose IL-2; cited from earlier work

IL-2: immunostimulatory protein, soluble 17 kDa cytokine
bioactivity after lipogel incorporation (Splenocytes): unaffected | patients achieving durable complete remissions (metastatic melanoma): Approximately 5%
